This passage reports growth results from PubChem BioAssay (NCI).

Among the test systems are SK-MEL-2 melanoma; SN12C renal; UO-31 renal; TK-10 renal; ACHN renal; CAKI-1 renal; A498 renal; HL-60(TB) leukemia; CCRF-CEM leukemia; MOLT-4 leukemia; SR leukemia; RPMI-8226 leukemia; OVCAR-8 ovarian; OVCAR-5 ovarian; OVCAR-4 ovarian; SK-OV-3 ovarian; IGROV1 ovarian; OVCAR-3 ovarian; HS 578T breast; EKVX NSCLC.
Holding throughout (assay): NCI-60 one-dose screen, 48 h (100 = growth as untreated, 0 = no growth, -100 = all killed)
Holding throughout (conditions): 10 µM

Values joined by “and” are separate entries in the source; they are usually repeats but may differ in a detail not shown here. Equal values may be shown once. This is a selection; strong and weak results do not stand in their true shares.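 Activity criterion: percent growth below 10, measured after cells in 96-well plates were exposed to a single compound concentration for 48 hours.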 Active and inactive are the calls of the source.

Turning to `CCC(C)(C)c1ccc(O)c(CN(CCCl)CCCl)c1`, the growth with SK-MEL-2 melanoma was inactive: 110%; in the assay on SN12C renal, inactive: 102%; in the assay with UO-31 renal, inactive: 90.3%; in the assay on TK-10 renal it was inactive: 99.2%; in the assay on ACHN renal it was inactive: 99.2%; in the assay on CAKI-1 renal, inactive: 97.2%. Also, the growth was inactive: 90.6% in the assay with A498 renal; inactive: 99.1% with HL-60(TB) leukemia; inactive: 101% in the assay with CCRF-CEM leukemia; inactive: 92.2% in the assay on MOLT-4 leukemia; inactive: 92.4% in the assay with SR leukemia; inactive: 107% in the assay on RPMI-8226 leukemia. Also, the growth was inactive: 104% in the assay with OVCAR-8 ovarian; inactive: 103% in the assay on OVCAR-5 ovarian; inactive: 99.7% in the assay with OVCAR-4 ovarian; inactive: 96.2% with SK-OV-3 ovarian; inactive: 104% in the assay with IGROV1 ovarian; inactive: 103% in the assay on OVCAR-3 ovarian. Further, the growth in the assay on HS 578T breast was inactive: 112%.

Turning to `CCOC(=O)N1CCC(=O)CC1`, the growth is inactive: 96.8% with SK-MEL-2 melanoma; inactive: 96.4% in the assay with SN12C renal; inactive: 87.3% with UO-31 renal; inactive: 105% with TK-10 renal; inactive: 101% in the assay with ACHN renal; inactive: 98.6% with CAKI-1 renal. Further, the growth in the assay with A498 renal was inactive: 95.4%; with HL-60(TB) leukemia it was inactive: 98.8%; in the assay with CCRF-CEM leukemia it was inactive: 97.4%; in the assay on MOLT-4 leukemia it was inactive: 102%; with SR leukemia, inactive: 96.5%; in the assay with RPMI-8226 leukemia, inactive: 103%. For the same compound, the growth was inactive: 95.9% in the assay on OVCAR-8 ovarian; inactive: 99.8% in the assay with OVCAR-5 ovarian; inactive: 95.4% in the assay with OVCAR-4 ovarian; inactive: 94.6% with SK-OV-3 ovarian; inactive: 98.9% in the assay on IGROV1 ovarian; inactive: 106% in the assay with OVCAR-3 ovarian. In the assay with HS 578T breast, the growth was inactive: 95.9%.

As for `COc1c(C)cc(N(CCCl)CCCl)c2ccccc12`, the growth in the assay on SK-MEL-2 melanoma was inactive: 118%; in the assay on SN12C renal, inactive: 34.6%; in the assay with UO-31 renal, inactive: 43.5%; with TK-10 renal it was inactive: 96.6%; in the assay with ACHN renal it was inactive: 15.2%; in the assay on CAKI-1 renal it was active: -0.134%. Further, the growth with A498 renal is inactive: 70.9%; with HL-60(TB) leukemia, active: 7.16%; in the assay on CCRF-CEM leukemia, inactive: 11.7%; with MOLT-4 leukemia, active: 4.93%; in the assay on SR leukemia, active: -3.64%; in the assay on RPMI-8226 leukemia it was inactive: 70.1%. Further, the growth with OVCAR-8 ovarian is inactive: 46.3%; in the assay with OVCAR-5 ovarian it was inactive: 78.6%; with OVCAR-4 ovarian, inactive: 77.3%; with SK-OV-3 ovarian, inactive: 68.4%; in the assay on IGROV1 ovarian, inactive: 50%; in the assay on OVCAR-3 ovarian, inactive: 96.4%. For the same compound, the growth in the assay with HS 578T breast is inactive: 116%.

As for `Oc1ccc(Br)cc1CN(CCCl)CCCl`, the growth in the assay with SK-MEL-2 melanoma is inactive: 104%; in the assay with EKVX NSCLC, inactive: 93.1%; in the assay with SN12C renal, inactive: 40.7%; in the assay with UO-31 renal it was inactive: 54.1%; in the assay with TK-10 renal, inactive: 96.2%; with A498 renal, inactive: 95.9%. The growth with HL-60(TB) leukemia was inactive: 11.8%; in the assay with CCRF-CEM leukemia, inactive: 28.2%; with MOLT-4 leukemia, inactive: 27%; with SR leukemia it was inactive: 16.7%; in the assay on RPMI-8226 leukemia it was inactive: 75.8%; in the assay with OVCAR-8 ovarian, inactive: 77.6%. Also, the growth in the assay on OVCAR-5 ovarian is inactive: 95.2%; in the assay with OVCAR-4 ovarian, inactive: 84.3%; in the assay on SK-OV-3 ovarian, inactive: 74.6%; with IGROV1 ovarian it was inactive: 74.3%; in the assay with OVCAR-3 ovarian, inactive: 76.5%; in the assay on HS 578T breast it was inactive: 106%.

Take `Cc1ccc(C(=O)N(CCCl)CCCl)cc1`: the growth in the assay with SK-MEL-2 melanoma was inactive: 112%; in the assay with SN12C renal, inactive: 99.6%; in the assay with UO-31 renal, inactive: 86.1%; in the assay with TK-10 renal it was inactive: 108%; in the assay with ACHN renal, inactive: 93.1%; in the assay with CAKI-1 renal it was inactive: 82.4%. Also, the growth in the assay on A498 renal was inactive: 102%; in the assay with HL-60(TB) leukemia, inactive: 94.4%; with MOLT-4 leukemia it was inactive: 100%; with SR leukemia it was inactive: 109%; in the assay on RPMI-8226 leukemia it was inactive: 103%; in the assay on OVCAR-8 ovarian, inactive: 99.1%. The growth was inactive: 97.3% in the assay with OVCAR-5 ovarian; inactive: 97.2% in the assay with OVCAR-4 ovarian; inactive: 114% with SK-OV-3 ovarian; inactive: 99% with IGROV1 ovarian; inactive: 115% in the assay on OVCAR-3 ovarian.

For `COc1cc(CN(CCCl)CCCl)cc(OC)c1`, the growth in the assay on SK-MEL-2 melanoma is inactive: 90.5%; in the assay on SN12C renal, inactive: 100%; with UO-31 renal, inactive: 89.6%; in the assay with TK-10 renal, inactive: 127%; with ACHN renal it was inactive: 93.3%; in the assay on CAKI-1 renal, inactive: 90.1%. The growth with A498 renal is inactive: 100%; in the assay with HL-60(TB) leukemia, inactive: 72.1%; with MOLT-4 leukemia it was inactive: 78.6%; in the assay on SR leukemia it was inactive: 84.5%; in the assay with RPMI-8226 leukemia, inactive: 97.2%; with OVCAR-8 ovarian, inactive: 97%. For the same compound, the growth in the assay on OVCAR-5 ovarian is inactive: 103%; with OVCAR-4 ovarian, inactive: 109%; in the assay with SK-OV-3 ovarian it was inactive: 103%; in the assay on IGROV1 ovarian, inactive: 90.4%; in the assay with OVCAR-3 ovarian, inactive: 105%.

Consider `ClCCSC(SCCCl)=C(SCCCl)SCCCl`, for which the growth with SK-MEL-2 melanoma is inactive: 129%; with EKVX NSCLC it was inactive: 92.7%; in the assay with SN12C renal, inactive: 64.6%; with TK-10 renal, inactive: 96.3%; with ACHN renal, inactive: 36.8%; with CAKI-1 renal, inactive: 41.2%. Besides, the growth in the assay with A498 renal was inactive: 107%; in the assay on HL-60(TB) leukemia it was inactive: 50.7%; in the assay with CCRF-CEM leukemia, inactive: 38.9%; with MOLT-4 leukemia, inactive: 66.4%; in the assay on RPMI-8226 leukemia it was inactive: 86.3%; in the assay with OVCAR-8 ovarian, inactive: 83.1%. Moreover, the growth is inactive: 105% with OVCAR-5 ovarian; inactive: 105% with OVCAR-4 ovarian; inactive: 95.2% with SK-OV-3 ovarian; inactive: 94.3% with IGROV1 ovarian; inactive: 103% with OVCAR-3 ovarian; inactive: 96% in the assay with HS 578T breast.

Turning to `ClCCN1CCN(CCCl)CC1`, the growth with SK-MEL-2 melanoma was inactive: 117%; in the assay with SN12C renal, inactive: 98.6% and inactive: 98.2%; with UO-31 renal, inactive: 87.3% and inactive: 80.9%; in the assay with TK-10 renal, inactive: 119% and inactive: 101%; in the assay on ACHN renal it was inactive: 103% and inactive: 91.4%; with CAKI-1 renal, inactive: 94.6% and inactive: 103%. The growth was inactive: 101% and inactive: 107% with A498 renal; inactive: 103% and inactive: 85.3% with HL-60(TB) leukemia; inactive: 89.3% in the assay with CCRF-CEM leukemia; inactive: 101% and inactive: 88% with MOLT-4 leukemia; inactive: 89.2% and inactive: 73.5% in the assay on SR leukemia; inactive: 95.3% and inactive: 96.6% in the assay with RPMI-8226 leukemia. In addition, the growth in the assay with OVCAR-8 ovarian was inactive: 102% and inactive: 91.8%; with OVCAR-5 ovarian, inactive: 110% and inactive: 103%; in the assay with OVCAR-4 ovarian it was inactive: 101% and inactive: 111%; in the assay on SK-OV-3 ovarian, inactive: 99.9% and inactive: 102%; in the assay with IGROV1 ovarian, inactive: 100% and inactive: 89.5%; in the assay with OVCAR-3 ovarian, inactive: 112% and inactive: 99.8%. Further, the growth in the assay on HS 578T breast was inactive: 108% and inactive: 99.8%.
